The chains behind the UniProt entries cited, without tags or fusion partners. Residues count along the entry.
UniProt P54764, 29-209 limits assumed: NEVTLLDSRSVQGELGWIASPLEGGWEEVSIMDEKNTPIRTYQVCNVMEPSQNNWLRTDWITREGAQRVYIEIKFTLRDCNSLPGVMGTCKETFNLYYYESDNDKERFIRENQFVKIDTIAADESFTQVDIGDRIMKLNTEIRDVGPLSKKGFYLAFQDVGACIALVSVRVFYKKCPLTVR

In publication PMC9404653, “EphA4 targeting agents protect motor neurons from cell death induced by amyotrophic lateral sclerosis -astrocytes” (iScience, 2022):

What was measured:
[1] = Aqueous solubility by 1H NMR; conditions: determined by 1H NMR
EphA4-LBD = EphA4-LBD (Homo sapiens, UniProt P54764); experiment: 2D [13C,1H] NMR chemical shift perturbation of 13Cε-Met labeled EphA4-LBD; conditions: weight average 1H/13C chemical shift perturbation, 20 μM EphA4-LBD, 298 K
SOD1(G93A) mouse model = conditions: ref Wu et al., 2017; cited from earlier work
EphA4 = conditions: primary cortical neurons; ref Wu et al., 2017; cited from earlier work
[2] = tested on: motor neurons co-cultured with sALS astrocytes; experiment: Postmortem sALS astrocyte:motor neuron co-culture, motor neuron survival; conditions: 123C4 100 μM added at motor neuron seeding, 5 days co-culture

SMILES: COc1ccc2[nH]cc(CCNC(=O)[C@H](Cc3ccncc3)NC(=O)[C@H](Cc3ccc(Cl)cc3)NC(=O)[C@H](Cc3c[nH]c4ccc(O)cc34)NC(=O)CCCN)c2c1
- Aqueous solubility [1]: ∼100 μM
- Δδ Met 60 (EphA4-LBD): + (+ < 0.05 ppm)
- Δδ Met 164 (EphA4-LBD): + (0.1 ppm < + < 0.2 ppm)
- Disease onset (SOD1(G93A) mouse model): not disease onset
- Survival (SOD1(G93A) mouse model): improved survival
- EphA4 phosphorylation (agonism) (EphA4): acts as an agonist
- Motor neuron survival [2]: prevented sALS astrocyte-mediated motor neuron toxicity
